# Data reported in PubChem BioAssay AID720509 (The Scripps Research Institute Molecular Screening Center, 2013).
# Protein sequences, listed by entry. Tags and fused reporters are not part of them.
# UniProt P02675, whole entry, looked up: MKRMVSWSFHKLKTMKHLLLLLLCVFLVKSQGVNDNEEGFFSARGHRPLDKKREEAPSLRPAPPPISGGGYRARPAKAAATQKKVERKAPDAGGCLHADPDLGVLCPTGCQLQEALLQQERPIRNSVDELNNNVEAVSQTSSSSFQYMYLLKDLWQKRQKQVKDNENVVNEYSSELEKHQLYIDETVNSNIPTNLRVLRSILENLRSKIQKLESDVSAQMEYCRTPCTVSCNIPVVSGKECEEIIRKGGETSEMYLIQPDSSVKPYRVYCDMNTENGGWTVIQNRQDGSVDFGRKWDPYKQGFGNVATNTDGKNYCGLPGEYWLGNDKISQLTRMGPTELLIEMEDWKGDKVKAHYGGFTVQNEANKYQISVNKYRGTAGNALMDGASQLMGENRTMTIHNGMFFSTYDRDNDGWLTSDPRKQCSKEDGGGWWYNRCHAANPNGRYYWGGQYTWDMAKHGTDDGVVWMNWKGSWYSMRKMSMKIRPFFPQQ
# Only a part is listed here, and it is no random draw. Calls of active or inactive are those of the source.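 The calls were made as follows: active = inhibition above a per-campaign cutoff: mean of compounds within control limits plus 3 SD (cut at about 15% in these data); inactive = the rest.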
# Molecular target: Fibrinogen beta chain (Homo sapiens) (UniProt P02675)
# Experiment: inhibitors of Tn6 peptide binding to fibrin DD(E), primary screen, biochemical, fluorescence polarization, human fibrin, Tn6 probe (AID 720509);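 also: 0% = median of all compound wells on the plate and 100% = blocking peptide control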
# Details: Fibrin DD(E) TRITC-Tn6 fluorescence polarization displacement; at 8.3 µM; active compounds read high
row,Structure (SMILES),inhibition
1,CCC(=O)N(c1ccccc1)C1(COC)CCN(CCc2cccs2)CC1,inactive: 8.59%
2,CCC(=O)N(c1ccccc1)C1(COC)CCN(CCn2nnn(CC)c2=O)CC1,inactive: 3.71%
